{"source": "patent US20120196828A1", "about": "“SENSITIZATION OF CANCER CELLS TO TREATMENT” (priority 2011, published 2012)", "origin": "cited, not measured here", "conditions": "See U.S. Pat. No. 7,468,358; cited from earlier work", "data": [{"substance": "2-O, 3-O desulfated heparin [ODSH]", "values": [{"measurement": "Induction of heparin-induced thrombocytopenia (HIT)", "value": "does not induce"}]}]}
